For assay [1], the system named is HLA-A*11:01 single chain protein. Format: biochemical, Human. The arrangement: unit not given beside the values.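 On EZ50kD (pH 6.2): scaled with positive control peptide as 1 and negative control peptide as 0.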
In assay [2] the target is photolabile unchained HLA-A*11:01 pMHC-I protein (Homo sapiens, UniProt P04439, A114D/D185E/E176A/F33Y/L180Q/S129P/T187R). Kind of assay: ELISA with photolabile unchained pMHC-I protein and UV irradiation. Format: binding. The following applies: Table 2; 62.5 nM photolabile pMHC-I mixture, 5 μM peptide in PBS, UV 365 nm 2 × 5 min on ice, 2 h room temperature on anti-β2m plate; Abs450nm − Abs570nm; instability cutoff < 0.6. (In an ELISA, binding on a coated surface is turned into a signal by an enzyme label.)

Read-outs that look alike come from different tables or passages of the source.

These results are taken from paper PMC7483518, “Destabilizing single chain major histocompatibility complex class I protein for repurposed enterokinase proteolysis” (Scientific Reports, 2020).

Take GTSGSPIIDK [reference compound]: in assay [1] (Table 2, pH 6.2, 37 °C, enterokinase, Eq. (4), instability cutoff < 0.3), the “EZ50kD (pH 6.2)” value turned out to be 0.6334. For the same sequence, in assay [2], the ELISA450nm stood at 1.385.

For the sequence RVIDPRRCLK [reference compound], the “EZ50kD (pH 6.2)” value in assay [1] (pH 6.2) stood at 1.075. Besides, the “EZ50kD (pH 8)” value in assay [1] (pH 8) worked out at 0.7339.
